This passage reports IC50 results from patent US9073974B2, “RGD-containing cyclic peptides” (The Regents of the University of California, priority 2009, dated 2015).

Sequences of proteins named here, by UniProt entry; tags and fusion partners are left off. Residues count along the entry.
UniProt P05106, 27-788: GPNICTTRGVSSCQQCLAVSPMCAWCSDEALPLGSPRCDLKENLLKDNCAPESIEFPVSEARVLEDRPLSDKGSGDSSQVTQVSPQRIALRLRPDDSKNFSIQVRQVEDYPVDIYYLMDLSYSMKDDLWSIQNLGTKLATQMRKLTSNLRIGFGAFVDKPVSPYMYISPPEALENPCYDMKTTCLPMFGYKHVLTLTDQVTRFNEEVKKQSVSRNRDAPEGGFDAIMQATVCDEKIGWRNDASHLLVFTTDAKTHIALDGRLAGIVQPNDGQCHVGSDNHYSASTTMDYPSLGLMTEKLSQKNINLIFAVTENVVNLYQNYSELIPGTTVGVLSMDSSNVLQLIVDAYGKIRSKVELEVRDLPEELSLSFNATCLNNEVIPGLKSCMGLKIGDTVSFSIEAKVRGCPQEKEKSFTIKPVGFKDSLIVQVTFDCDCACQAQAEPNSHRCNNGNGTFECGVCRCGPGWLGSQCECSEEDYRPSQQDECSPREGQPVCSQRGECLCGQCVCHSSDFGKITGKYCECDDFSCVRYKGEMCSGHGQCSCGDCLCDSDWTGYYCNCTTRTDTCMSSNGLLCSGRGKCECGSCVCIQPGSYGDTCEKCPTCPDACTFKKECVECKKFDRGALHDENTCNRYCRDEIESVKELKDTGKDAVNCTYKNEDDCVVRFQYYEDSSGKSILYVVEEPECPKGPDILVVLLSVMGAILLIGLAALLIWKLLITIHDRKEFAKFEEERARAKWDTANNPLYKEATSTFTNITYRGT
UniProt P06756, 891-1048 partner limits assumed: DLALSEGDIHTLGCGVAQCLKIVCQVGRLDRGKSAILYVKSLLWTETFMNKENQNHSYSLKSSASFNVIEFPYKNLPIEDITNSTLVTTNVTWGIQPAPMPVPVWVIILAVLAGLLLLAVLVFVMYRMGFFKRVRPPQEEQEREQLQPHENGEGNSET
UniProt P06756, 31-889 limits assumed: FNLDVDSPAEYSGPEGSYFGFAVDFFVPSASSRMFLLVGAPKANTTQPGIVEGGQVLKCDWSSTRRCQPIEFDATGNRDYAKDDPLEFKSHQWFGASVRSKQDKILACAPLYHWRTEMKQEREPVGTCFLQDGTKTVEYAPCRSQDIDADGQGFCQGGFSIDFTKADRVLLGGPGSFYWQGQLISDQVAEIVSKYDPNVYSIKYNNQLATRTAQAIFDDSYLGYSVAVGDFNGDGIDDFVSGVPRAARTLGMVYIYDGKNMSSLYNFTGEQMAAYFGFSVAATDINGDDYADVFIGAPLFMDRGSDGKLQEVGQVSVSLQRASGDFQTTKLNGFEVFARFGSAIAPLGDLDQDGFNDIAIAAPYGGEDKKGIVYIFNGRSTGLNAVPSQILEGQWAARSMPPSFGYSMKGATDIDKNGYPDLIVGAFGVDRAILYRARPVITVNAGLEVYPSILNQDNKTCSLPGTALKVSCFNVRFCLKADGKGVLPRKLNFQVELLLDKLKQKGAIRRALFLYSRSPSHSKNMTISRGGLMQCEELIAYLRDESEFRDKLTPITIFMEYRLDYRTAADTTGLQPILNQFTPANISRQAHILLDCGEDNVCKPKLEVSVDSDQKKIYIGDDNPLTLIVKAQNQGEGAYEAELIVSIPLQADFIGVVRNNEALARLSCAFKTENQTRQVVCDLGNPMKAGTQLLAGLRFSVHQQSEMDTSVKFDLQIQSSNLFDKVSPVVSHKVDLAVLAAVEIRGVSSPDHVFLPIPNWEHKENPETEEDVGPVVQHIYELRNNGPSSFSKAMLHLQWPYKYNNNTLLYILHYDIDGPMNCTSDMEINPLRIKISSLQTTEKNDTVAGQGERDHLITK

A value given as a limit tells only on which side of the number the result lay.

By IC50 is commonly meant the concentration needed to halve the response being measured.

The target of assay [1] is T1, αvβ3 integrin (Homo sapiens, UniProt P05106+P06756). As to the kind of experiment: Inhibition of biotinylated LXW7 binding to αvβ3-K562 cells (flow cytometry). Also noted: expressed in transfected cells; host or cells: K562 (gift of Dr. Yoshikazu Takada, UC Davis). The following applies: LXW9-92: inhibiting the binding of biotinylated LXW7 against αvβ3-K562 cells; class symbols. The procedure:
The apparent IC50 were calculated using Graph Prism software (≦www.graphpad.com≧).
(§1) The samples were analyzed with Coulter XL-MCL flow cytometry. The histogram and mean fluorescence intensity (MFI) were determined. The apparent Kd, IC50 were calculated using Graph Prism software (≦www.graphpad.com≧).
On the technique in general: A flow cytometer gives signals particle by particle.

Assay [2] addresses T1, αvβ3 integrin. As to the kind of experiment: Inhibition of FITC-Echistatin binding to αvβ3-K562 cells (flow cytometry). Also noted: expressed in transfected cells; host or cells: K562 (gift of Dr. Yoshikazu Takada, UC Davis). The note with it: read-out: IC50 (μM) Inhibit FITC-Echistatin binding with αvβ3-K562; biotinylated peptides. As to the method: as §1

Substance cGRGD-NGlu-Ppca-c [LXW72] came in with an IC50 on αvβ3 integrin [1] above 10000 nM.

“Biotinylated Cyclo(RGDyK) [cyclo (RGDyK)-Bio, reference compound]”: at αvβ3 integrin [2], the IC50 was determined as 1.35 ± 0.09 µM.
